The values below come from US10111875B2, “Pyrrolopyrimidine compounds and uses thereof” (HUTCHISON MEDIPHARMA LIMITED, priority 2010, dated 2018).

Protein sequences, listed by entry. Tags and fused reporters are not part of them. Residues count along the entry.
UniProt P23458, 875-1153: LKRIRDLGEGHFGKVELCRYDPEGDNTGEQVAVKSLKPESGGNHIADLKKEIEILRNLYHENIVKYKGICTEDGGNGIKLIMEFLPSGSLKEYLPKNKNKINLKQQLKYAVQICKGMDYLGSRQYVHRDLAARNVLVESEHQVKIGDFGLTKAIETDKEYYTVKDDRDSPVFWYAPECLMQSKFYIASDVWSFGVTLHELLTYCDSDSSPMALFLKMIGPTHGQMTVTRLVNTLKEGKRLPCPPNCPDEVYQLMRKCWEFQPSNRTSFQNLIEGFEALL

Structures are written as SMILES.

This test concerns the target Recombinant human JAK1 catalytic domain (Homo sapiens (Human), UniProt P23458). Nature of the test: JAK1 kinase assay (Z'-LYTE Tyr 6 Peptide). It counts as biochemical. The note with it: read-out: inhibition percentage (IR %). As to the method:
JAK1/2/3 kinase assay are performed in vitro using Kit-Tyr 6 Peptide (Invitrogen, Cat. No. PV4122). TYK2 kinase assay are performed in vitro using Z′-LYTE™ Kinase Assay Kit-Tyr 3 Peptide (Invitrogen, Cat. No. PV3192). […] All compounds are initially tested at 8 different concentrations (1 μM down to 0.0003 μM) using a 1:3 serial dilution scheme.

Regarding `CN(c1nc(C#N)cs1)[C@@H]1CCN(c2ncnc3[nH]ccc23)C1` [Compound 93], the inhibition (commonly the change of the read-out against control, counted positive when it falls) at 0.3 µM lay in the range of 50 to 100%.
